Results: ChEMBL document CHEMBL1126862, “Substituted 3-phenylpiperidines: new centrally acting dopamine autoreceptor antagonists” (J Med Chem, 1993)

Chains of the proteins cited; added tags and fusions are not shown.
UniProt P35462, whole entry: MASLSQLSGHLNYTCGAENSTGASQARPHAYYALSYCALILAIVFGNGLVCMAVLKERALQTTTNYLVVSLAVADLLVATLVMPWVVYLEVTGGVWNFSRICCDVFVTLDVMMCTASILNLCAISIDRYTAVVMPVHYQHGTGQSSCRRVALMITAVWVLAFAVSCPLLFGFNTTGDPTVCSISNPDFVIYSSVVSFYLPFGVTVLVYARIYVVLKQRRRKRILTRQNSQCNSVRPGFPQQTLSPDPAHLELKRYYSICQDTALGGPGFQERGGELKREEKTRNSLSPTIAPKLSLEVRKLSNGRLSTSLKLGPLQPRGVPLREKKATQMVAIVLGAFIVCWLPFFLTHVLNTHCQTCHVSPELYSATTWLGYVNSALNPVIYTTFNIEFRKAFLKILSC

Biological target: D(3) dopamine receptor (Homo sapiens, UniProt P35462)

Structure (SMILES) | Ki [nM]
CCCN1CCCC(c2cccc(O)c2)C1 (single isomer, unassigned; (+)) | 217
CCCN1CCCC(c2cccc(O)c2)C1 (single isomer, unassigned; (-)) | 132
